N-glyco inh – increase of ERlucT glycosylation luciferase signal, primary screen, N-linked glycosylation inhibitor project, D54 ERlucT cells, luminescence, set 2; AID 588692, 2011; D54 ERlucT glycosylation luciferase reporter, 24 h; percent of 100 nM tunicamycin response; reporter increase, % at 12.5 µM; 360,000 tested, 0.23% active;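 active means mean luciferase reporter signal, scaled so untreated is 0 and the glycosylation-blocking control 100, at or above a set limit in every replicate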;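 further: luciferase carries N-glycosylation sites so blocking glycosylation raises the light; 0% = median of neutral control wells and 100% = median of 100 nM tunicamycin wells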
C2C12 statin – suppressors of statin myotoxicity in C2C12 myotubes, primary screen, cell-based, single point, plate reader. C2C12 myotubes + simvastatin, ATP luminescence, 48 h; scaled: DMSO 0, geranylgeraniol control 100. 330,000 tested, 0.78% active. AID 602340, 2012. rescue of ATP level, % at 7.49 µM;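 active means mean ATP rescue above about 67%, or every replicate alone reaching that limit, limit read from the data, passing the limit was not always enough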;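 further: myotubes were challenged with 10 µM simvastatin during compound exposure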
miR122 inh – miR-122 Renilla sensor signal increase in Huh7, primary screen, miR-122 inhibitor project, cell-based, single point, plate reader; Huh7 miR-122 Renilla luciferase sensor, 48 h; neutral wells = 0, positive control = 100; activation (reporter increase), % at 12.5 µM; 340,000 tested, 0.3% active; AID 602342, 2012;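 active means mean replicate activation score at least 90 and every replicate individually at or above 90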;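 further: higher luciferase means less miR-122 activity so hits act as miR-122 inhibitors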
Cneo AK release – Cryptococcus neoformans cell lysis inducers, primary screen, AK release luminescence, single concentration; C. neoformans lysis, adenylate kinase release luminescence, 4 h; normalised: neutral wells 0, clomiphene wells 100; lysis activity, % at 15 µM; 360,000 tested, 0.2% active; AID 651654, 2012;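 active means mean lysis activity across replicates of at least 80%, whatever share of replicates individually reach that level; inactive means mean lysis activity below 80%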
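Schedule: static 4 h at 37 °C with compound, 1 h detection; system: C. neoformans cells; benchmarks: Clomiphene as positive control; buffer or medium: fresh YPD medium; measure: luminescence rise reflecting yeast cell lysis; measured by: luminescent adenylate kinase detection reagent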
Yeast UUG start – yeast start codon fidelity modulation | S. cerevisiae UUG-firefly luciferase reporter, luminescence/redox ratio | activity score, % at 18.7 µM | hit rate 0.13% among 350,000 | AID 602363;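 active means replicate mean at a twofold rise or more, about +100% in these data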;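 further: firefly luciferase made from a UUG start codon reports start codon fidelity; reporter light over untreated wells divided by growth signal over untreated wells; some hits fall short of that in this replicate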
* marks the source's active call; other numbers are inactive results; ! = not active in a repeat; [ ] = dose if it differs, or a comment. An excerpt weighted towards active compounds, which were near 1.2% of everything screened.

What do the screens show for `CCc1ccccc1NC(=O)CCN1C(=O)c2ccccc2C1=O`?
N-glyco inh: 2; C2C12 statin: 133*; miR122 inh: -3; Cneo AK release: -1; Yeast UUG start: -19

Results for Cc1cn(CC(=O)NCCc2ccccn2)c(=O)[nH]c1=O ?
N-glyco inh: 0; C2C12 statin: 3; miR122 inh: 0; Cneo AK release: -12; Yeast UUG start: 10

What do the screens show for `Cc1nn(-c2ccc(Cl)cc2)c(Cl)c1/C=C(\C#N)C(N)=O`?
N-glyco inh: 9; miR122 inh: -1; Cneo AK release: 5; Yeast UUG start: -1

Results for C=CCNC(=O)/C(C#N)=C/c1c(C)nn(-c2ccc(Cl)cc2)c1Cl ?
N-glyco inh: 26*

What do the screens show for `CC1CCN(C(=O)c2cc(F)c(F)cc2Cl)CC1`?
N-glyco inh: 3; C2C12 statin: 135*; miR122 inh: 5; Cneo AK release: -2; Yeast UUG start: 10

Results for C[C@@H]1CN([C@@H](C)CO)S(=O)(=O)c2ccc(/C=C/c3ccccc3)cc2O[C@H]1CN(C)C ?
C2C12 statin: -6; miR122 inh: 7[16.7 µM]; Cneo AK release: -1; Yeast UUG start: 10

What do the screens show for `Cc1nc2ccc(S(=O)(=O)NCC(=O)N3CCCC(C)C3)cc2s1` (stereo not drawn)?
N-glyco inh: 1; C2C12 statin: 106*; miR122 inh: 1; Cneo AK release: -3; Yeast UUG start: 0

How did Cc1nc2ccc(S(=O)(=O)NCC(=O)N3CCc4ccccc4C3)cc2s1 do in these assays?
N-glyco inh: -1; C2C12 statin: 1; miR122 inh: -5; Cneo AK release: -1; Yeast UUG start: 5

Results for Cc1nc2ccc(S(=O)(=O)Nc3ccccc3C)cc2s1 ?
N-glyco inh: 5; C2C12 statin: -11; miR122 inh: 127*

What do the screens show for `CCCc1cn(CC[C@@H]2CC[C@H](NC(=O)Nc3ccc4c(c3)OCO4)[C@H](CO)O2)nn1`?
C2C12 statin: 5; Cneo AK release: 44; Yeast UUG start: -12

What do the screens show for `CN(Cc1ccc(OC(F)F)cc1)C(=O)c1ccc2c(=O)n3c(nc2c1)CCC3`?
N-glyco inh: 4; C2C12 statin: -9; miR122 inh: 6; Cneo AK release: -2; Yeast UUG start: -12

What do the screens show for `CC(=O)Nc1ccc2c(c1)C(=O)N(C)[C@H]1CC[C@@H](CC(=O)NCCCN3CCOCC3)O[C@@H]1CO2`?
C2C12 statin: 10; miR122 inh: -17[16.7 µM]; Cneo AK release: -2; Yeast UUG start: -3

Results for Cc1c(N=Cc2c(O)n(Cc3ccco3)c(=O)c3ccccc23)c(=O)n(-c2ccccc2)n1C ?
N-glyco inh: -3; C2C12 statin: 114*; miR122 inh: 3; Cneo AK release: -1; Yeast UUG start: -8

Results for C[C@@H]1CN([C@@H](C)CO)C(=O)c2cc(C3=CCCCC3)cnc2O[C@@H]1CN(C)Cc1ccccc1C(=O)O ?
C2C12 statin: 2; miR122 inh: -4[16.7 µM]; Cneo AK release: 1; Yeast UUG start: 5

How did COC(=O)N(C)C[C@H]1OCc2cn(nn2)CCCC(=O)N([C@H](C)CO)C[C@@H]1C do in these assays?
C2C12 statin: 4; miR122 inh: 3[16.7 µM]; Cneo AK release: 100*; Yeast UUG start: 7

Results for C[C@H]1CN([C@@H](C)CO)C(=O)CCCn2nncc2CO[C@@H]1CN(C)Cc1cccc(C(F)(F)F)c1 ?
N-glyco inh: 1; C2C12 statin: -2; miR122 inh: -1; Cneo AK release: 0; Yeast UUG start: -17

What do the screens show for `C[C@@H]1CN([C@@H](C)CO)C(=O)CCCn2nncc2CO[C@H]1CN(C)Cc1cccc(C(F)(F)F)c1`?
N-glyco inh: 1; C2C12 statin: 0; miR122 inh: -4; Cneo AK release: 120*!; Yeast UUG start: -2

Results for C[C@H]1CN([C@@H](C)CO)C(=O)CCCn2cc(nn2)CO[C@@H]1CN(C)Cc1ccc(C(F)(F)F)cc1 ?
C2C12 statin: -2; miR122 inh: -2[16.7 µM]; Cneo AK release: 82*

What do the screens show for `CC(C)OC(=O)N(C)C[C@H]1OCc2cn(nn2)CCCC(=O)N([C@@H](C)CO)C[C@@H]1C`?
C2C12 statin: -2; miR122 inh: -5[16.7 µM]; Cneo AK release: 4; Yeast UUG start: 1

Results for C[C@@H]1CN([C@@H](C)CO)C(=O)CCCn2cc(nn2)CO[C@@H]1CN(C)Cc1ccc2c(c1)OCO2 ?
C2C12 statin: -8; miR122 inh: -3[16.7 µM]; Cneo AK release: 114*; Yeast UUG start: 9

Results for CC(=O)Nc1ccc(-c2noc(-c3csc([C@@H]4C[C@H](O)[C@@H](CO)O4)n3)n2)cc1 ?
N-glyco inh: -1; C2C12 statin: 5; miR122 inh: -4; Cneo AK release: 0; Yeast UUG start: -4

How did C[C@H]1CN([C@@H](C)CO)C(=O)c2cccc(NS(=O)(=O)c3cccs3)c2O[C@H]1CN(C)Cc1ccc2c(c1)OCO2 do in these assays?
C2C12 statin: 27; miR122 inh: 14[16.7 µM]; Cneo AK release: 1; Yeast UUG start: -3

How did Cc1ccccc1S(=O)(=O)N1[C@@H]2c3cccc(=O)n3C[C@H]1[C@H](CO)[C@H]2C(=O)N1CCOCC1 do in these assays?
C2C12 statin: 4; miR122 inh: 2[16.7 µM]; Cneo AK release: 1

Results for COc1ccc2sc(-c3ccccc3OC)c(-c3ccc(O)cc3)c2c1 ?
N-glyco inh: -3; C2C12 statin: 132*; miR122 inh: 2; Cneo AK release: -1; Yeast UUG start: -10

How did C=CCN=C1NN=C(c2ccc3c(c2)OCCO3)CS1 do in these assays?
N-glyco inh: -15; C2C12 statin: 1; miR122 inh: 154*; Cneo AK release: -1; Yeast UUG start: -65

Results for CCOc1ccc(NS(=O)(=O)c2cc(NC(=O)C3CC3)ccc2C)cc1Br ?
N-glyco inh: -2; C2C12 statin: -4; miR122 inh: 140*; Cneo AK release: -1; Yeast UUG start: -25

What do the screens show for `C[C@@H]1CN([C@H](C)CO)C(=O)c2cccc(NC(=O)Nc3ccc(C(F)(F)F)cc3)c2O[C@@H]1CN(C)C`?
C2C12 statin: 2; miR122 inh: -2[16.7 µM]; Cneo AK release: -3; Yeast UUG start: -5

What do the screens show for `CCC(C(=O)NC1CCCC1)N(C(=O)Cn1nnc(-c2ccc(OC)c(OC)c2)n1)c1cccc(O)c1` (stereo not drawn)?
N-glyco inh: -1; C2C12 statin: 139*; miR122 inh: -4; Cneo AK release: -2; Yeast UUG start: 4

What do the screens show for `COc1ccc(-c2nnn(CC(=O)N(c3cccc(O)c3)C(C)C(=O)NC3CCCC3)n2)cc1OC` (stereo not drawn)?
N-glyco inh: -1

Structures shown so far containing a Cl atom (3):
What do the screens show for `Cc1nn(-c2ccc(Cl)cc2)c(Cl)c1/C=C(\C#N)C(N)=O`?
N-glyco inh: 9; miR122 inh: -1; Cneo AK release: 5; Yeast UUG start: -1

Results for C=CCNC(=O)/C(C#N)=C/c1c(C)nn(-c2ccc(Cl)cc2)c1Cl ?
N-glyco inh: 26*

What do the screens show for `CC1CCN(C(=O)c2cc(F)c(F)cc2Cl)CC1`?
N-glyco inh: 3; C2C12 statin: 135*; miR122 inh: 5; Cneo AK release: -2; Yeast UUG start: 10
